Values of other authors, collected in patent publication US20070207952A1, “Long Acting Biologically Active Conjugates” (priority 2003, published 2007).

Sequences of proteins named here, by UniProt entry; tags and fusion partners are left off. Residues count along the entry.
UniProt P00797, 67-406: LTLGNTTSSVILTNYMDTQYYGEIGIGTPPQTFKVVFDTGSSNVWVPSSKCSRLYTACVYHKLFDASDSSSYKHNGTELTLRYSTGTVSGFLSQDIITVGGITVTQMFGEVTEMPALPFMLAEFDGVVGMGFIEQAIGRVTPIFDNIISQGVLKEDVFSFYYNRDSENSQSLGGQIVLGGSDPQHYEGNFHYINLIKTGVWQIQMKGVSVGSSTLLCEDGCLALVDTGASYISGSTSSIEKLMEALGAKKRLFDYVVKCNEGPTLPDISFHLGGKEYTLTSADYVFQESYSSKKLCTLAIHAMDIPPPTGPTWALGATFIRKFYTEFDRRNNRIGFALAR

Molecular target: T1, Human plasma renin (Homo sapiens, UniProt P00797)
T1 construct: plasma renin
Conditions: literature values; cited from earlier work

In the case of PHPFHFFVYK, the IC50 is listed as 5200 nM.
